pIC50: −log10 of the molar value. Where two headings read alike, the source gives them in different places.
Assays:
[1] = target: Abl kinase (Seq. ID no. 1) (Homo sapiens, UniProt P00519); experiment: Abl kinase (u-Abl) spectrophotometric coupled kinase assay; assay type: biochemical; conditions: read-out: u-Abl IC50, unphosphorylated-Abl kinase, 2 h preincubation, ATP 500 μM
[2] = target: pAbl kinase (Seq. ID no. 1) (Homo sapiens, UniProt P00519); experiment: pAbl kinase spectrophotometric coupled kinase assay; assay type: biochemical; conditions: read-out: p-Abl IC50, phosphorylated-Abl kinase, 2 h preincubation, ATP 500 μM
[3] = target: Abl(T315I) (Seq. ID no. 2) kinase (Homo sapiens, UniProt P00519, T315I); experiment: Abl(T315I) kinase spectrophotometric coupled kinase assay; assay type: biochemical; conditions: read-out: T315I Abl IC50, T315I mutant Abl kinase, 2 h preincubation, ATP 500 μM
[4] = tested on: BaF3 cells transfected with wild type bcr-Abl; experiment: Cell proliferation assay, BaF3 wt bcr-abl; assay type: cell-based; conditions: read-out: BaF3 wt bcr-abl IC50, 72 hours, Cell Titer Blue
[5] = tested on: BaF3 cells transfected with bcr-Abl point mutant T315I; experiment: Cell proliferation assay, BaF3 T315I bcr-abl; assay type: cell-based; conditions: read-out: BaF3 T315I bcr-abl IC50, 72 hours, Cell Titer Blue
[6] = tested on: BaF3 cells transfected with bcr-Abl point mutant Y253F; experiment: Cell proliferation assay, BaF3 Y253F bcr-abl; assay type: cell-based; conditions: read-out: BaF3 Y253F bcr-abl IC50, 72 hours, Cell Titer Blue
[7] = tested on: BaF3 cells transfected with bcr-Abl point mutant E255K; experiment: Cell proliferation assay, BaF3 E255K bcr-abl; assay type: cell-based; conditions: read-out: BaF3 E255K bcr-abl IC50, 72 hours, Cell Titer Blue
[8] = tested on: BaF3 cells transfected with bcr-Abl point mutant M351T; experiment: Cell proliferation assay, BaF3 M351T bcr-abl; assay type: cell-based; conditions: read-out: BaF3 M351T bcr-abl IC50, 72 hours, Cell Titer Blue

Chains of the proteins cited; added tags and fusions are not shown. A line that says so, or that is headed by a name, gives the form on record, which may keep a tag or linker. Residues count along the entry.
UniProt P00519, 229-512 with tags or gaps: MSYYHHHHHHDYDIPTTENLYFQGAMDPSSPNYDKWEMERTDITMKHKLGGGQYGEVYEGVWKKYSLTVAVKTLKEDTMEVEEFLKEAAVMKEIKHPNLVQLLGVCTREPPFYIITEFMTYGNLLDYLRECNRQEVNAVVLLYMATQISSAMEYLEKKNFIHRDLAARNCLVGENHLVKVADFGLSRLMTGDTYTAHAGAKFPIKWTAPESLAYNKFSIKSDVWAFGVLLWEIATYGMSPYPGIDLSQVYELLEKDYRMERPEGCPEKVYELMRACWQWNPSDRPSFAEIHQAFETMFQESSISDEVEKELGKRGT
UniProt P00519, 229-496 with tags or gaps T315I: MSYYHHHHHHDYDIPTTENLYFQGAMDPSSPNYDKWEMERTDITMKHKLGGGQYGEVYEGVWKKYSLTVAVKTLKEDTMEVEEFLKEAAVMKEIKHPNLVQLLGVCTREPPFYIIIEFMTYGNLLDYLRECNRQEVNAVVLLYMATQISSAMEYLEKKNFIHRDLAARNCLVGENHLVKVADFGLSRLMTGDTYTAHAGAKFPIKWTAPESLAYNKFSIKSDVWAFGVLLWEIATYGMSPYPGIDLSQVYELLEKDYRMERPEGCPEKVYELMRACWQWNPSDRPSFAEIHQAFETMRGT

Question: `CNC(=O)c1cc(Oc2ccc(NC(=O)Nc3cc(C(C)(C)C)nn3-c3ccc4ncccc4c3)cc2)ccn1` was tested. Which pIC50 ([1]; tested form: bis hydrochloride) did it give?
Answer: 9.00

Question: What about the pIC50 ([2]; tested form: bis hydrochloride) of the same molecule?
Answer: 7.66

Question: And the pIC50 ([3]; tested form: bis hydrochloride)?
Answer: 7.42

Question: And the pIC50 ([4]; tested form: bis hydrochloride)?
Answer: 7.80

Question: And the pIC50 ([5]; tested form: bis hydrochloride)?
Answer: 7.92

Question: And the pIC50 ([6]; tested form: bis hydrochloride)?
Answer: 6.97

Question: What about the pIC50 ([7]; tested form: bis hydrochloride) of the same molecule?
Answer: 6.43

Question: What about the pIC50 ([8]; tested form: bis hydrochloride) of the same molecule?
Answer: 7.46

Question: What does the source list for `CC(C)c1cc(NC(=O)Nc2ccc(Oc3ccnc(C(N)=O)c3)cc2)n(-c2ccc3ncccc3c2)n1`?
Answer: pIC50 [1]: 8.10; pIC50 [2]: < 6.30; pIC50 [3]: 6.00; pIC50 [4]: 7.31; pIC50 [5]: 7.06; pIC50 [6]: 6.53; pIC50 [7]: 5.96; pIC50 [8]: 7.27

Question: How did the pIC50 [1] turn out when `CNC(=O)c1cc(Oc2ccc(NC(=O)Nc3cc(C(C)(C)C)nn3-c3ccc4[nH]ncc4c3)cc2)ccn1` was run?
Answer: 8.80

Question: And the pIC50 [2]?
Answer: 6.46

Question: What about the pIC50 [3] of the same molecule?
Answer: 6.80

Source: patent US8586565B2, “Kinase inhibitors useful for the treatment of myleoproliferative diseases and other proliferative diseases” (Deciphera Pharmaceuticals, LLC, priority 2006, dated 2013)
